Results from patent publication US10624891B2, “Method of diagnosing and treating skin necroptosis disease comprising RIP3-MLKL pathway blocker” (Ajou University Industry-Academic Cooperation Foundation, priority 2015, dated 2020).
Only a part of the results on these compounds is given; other tests are left out.

System: HaCaT and HEKn cells expressing RIP3
Assay: SNP treatment of HaCaT and HEKn cells, MTT assay and western blotting
Experimental: In order to identify the association between SNP and RIP3 observed in TEN, HaCaT and HEKn cells expressing RIP3 were treated with 0 to 5 mM SNP for 24 hours, and cell viability and phosphorylation of relevant factors were analyzed by MTT assay and western blotting.

Substance: sodium nitroprusside
- cell death (cell viability, MTT assay) (0 to 5 mM SNP for 24 hours): induced dose-dependent necrotic cell death
- phosphorylation of MAPK (western blotting) (SNP treatment over time): phosphorylation of MAPK over the treatment time
